Measured values: patent US10759809B2 (priority 2017, dated 2020)

Tests used:
[1] = system: SD rat; settings: male SD rat, tail tip in water bath of 55° C., by gavage, 1 hour after administration, bliss method
[2] = system: SD rats; assay: Evaluation of drug dependence by rat place preference test; settings: male SD rats, 3×ED50 dose (hot plate method) by gavage, once a day for 9 days, measured on 10th day within 15 minutes

[2H]C([2H])([2H])Oc1ccc2c3c1OC1[C@@]4(OC)CC[C@@]5(C[C@@H]4[C@](C)(O)C(C)(C)C)[C@@H](C2)N(CC2CC2)CC[C@]315 (some centres unmarked)
ED50 [1]: >50 mg/kg

[2H]C([2H])([2H])Oc1ccc2c3c1O[C@H]1[C@@]4(OC)CC[C@@]5(C[C@@H]4[C@](C)(O)C(C)(C)CC)[C@@H](C2)N(C([2H])([2H])C2CC2)CC[C@]315
ED50 [1]: 14.05 ± 8.20 mg/kg

[2H]C([2H])([2H])Oc1ccc2c3c1OC1[C@@]4(OC)CC[C@@]5(C[C@@H]4[C@](C)(O)C(C)(C)C)[C@@H](C2)N(C([2H])([2H])C2CC2)CC[C@]315 (some centres unmarked)
ED50 [1]: >50 mg/kg

[2H]C([2H])(C1CC1)N1CC[C@]23c4c5ccc(OC)c4O[C@H]2[C@@]2(OC)CC[C@@]3(C[C@@H]2[C@](C)(O)C(C)(C)CC)[C@H]1C5
Residence time in drug-side box (Mean ± S, s) [2]: 134.52 ± 32.24 s
ED50 [1]: 2.98 ± 1.20 mg/kg

[2H]c1c([2H])c2c3c(c1O)O[C@H]1[C@@]4(OC)CC[C@@]5(C[C@@H]4[C@](C)(O)C(C)(C)CC)[C@@H](C2)N(CC2CC2)CC[C@]315
Residence time in drug-side box (Mean ± S, s) [2]: 282.49 ± 196.72 s
ED50 [1]: 6.53 ± 5.20 mg/kg

CCC(C)(C)[C@@](C)(O)[C@H]1C[C@@]23CC[C@]1(OC)[C@@H]1Oc4c(O)ccc5c4[C@@]12CCN(CC1CC1)[C@@H]3C5
Residence time in drug-side box (Mean ± S, s) [2]: 240.23 ± 157.71 s
ED50 [1]: 8.06 ± 7.32 mg/kg

[2H]C([2H])([2H])Oc1ccc2c3c1O[C@H]1[C@@]4(OC)CC[C@@]5(C[C@@H]4[C@](C)(O)C(C)(C)CC)[C@@H](C2)N(CC2CC2)CC[C@]315
ED50 [1]: 13.73 ± 9.95 mg/kg

[2H]C([2H])(C1CC1)N1CC[C@]23c4c5ccc(O)c4O[C@H]2[C@@]2(OC)CC[C@@]3(C[C@@H]2[C@](C)(O)C(C)(C)CC)[C@H]1C5
Residence time in drug-side box (Mean ± S, s) [2]: 121.58 ± 33.98 s
ED50 [1]: 4.01 ± 2.21 mg/kg

[2H]C([2H])(C1CC1)N1CC[C@]23c4c5ccc(OC)c4O[C@H]2[C@@]2(OC)CC[C@@]3(C[C@@H]2[C@](C)(O)C(C)(C)C)[C@H]1C5
Residence time in drug-side box (Mean ± S, s) [2]: 137.77 ± 28.75 s
ED50 [1]: 14.52 ± 4.25 mg/kg
